Measured values published in ChEMBL document CHEMBL5390264, “Exploring Fatty Acid Mimetics as NR4A Ligands” (J Med Chem, 2023).
Calls of active or inactive are those of the source. The calls are words filed in the database; no cut-off is given here.

Sequences of proteins named here, by UniProt entry; tags and fusion partners are left off. A change or cut given only in a name is not applied to a line headed by its entry.
UniProt P22736, whole entry: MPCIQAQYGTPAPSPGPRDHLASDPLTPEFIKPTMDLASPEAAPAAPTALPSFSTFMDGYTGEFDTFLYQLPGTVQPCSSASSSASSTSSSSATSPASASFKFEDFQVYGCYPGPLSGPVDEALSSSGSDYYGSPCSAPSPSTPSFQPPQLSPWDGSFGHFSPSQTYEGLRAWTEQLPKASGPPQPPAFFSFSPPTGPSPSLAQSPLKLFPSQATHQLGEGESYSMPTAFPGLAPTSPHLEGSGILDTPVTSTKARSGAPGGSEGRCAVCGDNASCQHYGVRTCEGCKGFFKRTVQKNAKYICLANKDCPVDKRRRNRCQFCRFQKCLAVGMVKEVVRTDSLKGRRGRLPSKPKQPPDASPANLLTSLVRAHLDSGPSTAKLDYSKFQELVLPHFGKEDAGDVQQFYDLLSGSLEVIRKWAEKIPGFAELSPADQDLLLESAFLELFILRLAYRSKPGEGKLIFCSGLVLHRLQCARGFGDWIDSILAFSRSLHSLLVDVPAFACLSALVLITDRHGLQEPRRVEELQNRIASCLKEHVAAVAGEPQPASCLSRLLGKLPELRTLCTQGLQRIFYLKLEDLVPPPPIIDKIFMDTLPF
UniProt Q92570: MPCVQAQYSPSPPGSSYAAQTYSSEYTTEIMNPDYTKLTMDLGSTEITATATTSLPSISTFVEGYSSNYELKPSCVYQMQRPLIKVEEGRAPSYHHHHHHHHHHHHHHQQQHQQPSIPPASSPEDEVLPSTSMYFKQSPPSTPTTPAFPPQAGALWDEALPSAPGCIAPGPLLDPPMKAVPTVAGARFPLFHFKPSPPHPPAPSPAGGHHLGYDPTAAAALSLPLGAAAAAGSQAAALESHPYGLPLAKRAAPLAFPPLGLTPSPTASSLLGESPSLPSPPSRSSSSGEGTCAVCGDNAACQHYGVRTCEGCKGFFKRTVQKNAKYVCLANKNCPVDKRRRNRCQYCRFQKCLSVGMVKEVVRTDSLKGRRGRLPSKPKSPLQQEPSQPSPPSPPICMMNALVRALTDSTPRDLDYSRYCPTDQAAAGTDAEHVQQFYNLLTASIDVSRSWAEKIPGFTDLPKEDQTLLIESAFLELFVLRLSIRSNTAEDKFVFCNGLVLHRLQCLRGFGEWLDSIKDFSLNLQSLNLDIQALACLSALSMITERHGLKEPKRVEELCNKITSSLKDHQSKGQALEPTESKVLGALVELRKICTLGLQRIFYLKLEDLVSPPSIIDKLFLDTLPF

Experiments:
Type in all cases: cell-based
[1] = biological target: T1, Nuclear receptor subfamily 4immunitygroup A member 1 (Homo sapiens, UniProt P22736); experiment: Modulation of human Nur77 LBD transiently transfected in HEK293T cells at 100 to 200 uM incubated for 16 hrs by Gal4-hybrid reporter gene based Dual-glo luciferase assay; conditions: dose 100-200 µM
[2] = biological target: T1, Nuclear receptor subfamily 4immunitygroup A member 1; experiment: Agonist activity at human Nur77 LBD transiently transfected in HEK293T cells assessed as maximal activation incubated for 16 hrs by Gal4-hybrid reporter gene based Dual-glo luciferase assay relative to control; conditions: filed as agonist
[3] = biological target: Nuclear receptor subfamily 4 group A member 3 (Homo sapiens, UniProt Q92570); experiment: Agonist activity at human NOR-1 LBD transiently transfected in HEK293T cells assessed as maximal activation incubated for 16 hrs by Gal4-hybrid reporter gene based Dual-glo luciferase assay relative to control; conditions: filed as agonist

SMILES | Activity [1] | Emax [2] [%] | Emax [3] [%]
O=C(O)Cc1ccccc1Br | inactive | – | –
O=C(O)c1cccc(OCc2ccc(Cl)cc2Cl)c1 | – | 211 | 221
